scFv variants of Ab-14 (heavy chain) against a SARS-CoV-2 spike peptide

Binding partner: SARS-CoV-2 spike HR2 peptide, sequence PDVDLGDISGINAS.

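AAYL49 was designed without a model: most single CDR substitutions and a random sample of double and triple ones. AlphaSeq pools MATa yeast showing the antibodies with MATalpha yeast showing the peptide. Binding brings cells together so that they mate, and sequencing counts the barcode pairs among the diploids. A regression on co-assayed BCL2-family reference pairs converts the normalised counts of each replicate to an apparent Kd. Mating was done three times.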

The variants keep the light chain, the linker and the frameworks of Ab-14 (scFv order VH, a (GGGGS)3 linker, VL).
VH: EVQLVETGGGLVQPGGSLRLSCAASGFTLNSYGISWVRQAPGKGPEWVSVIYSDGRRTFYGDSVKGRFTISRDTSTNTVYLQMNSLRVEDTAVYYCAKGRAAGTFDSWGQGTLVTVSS
VL: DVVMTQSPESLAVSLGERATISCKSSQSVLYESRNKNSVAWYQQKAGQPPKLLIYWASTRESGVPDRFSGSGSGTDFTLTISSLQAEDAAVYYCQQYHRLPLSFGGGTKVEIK

Substitutions are numbered in sequence along the VH above, starting at 1 (not Kabat). Every variant below is changed at G33 of the VH (sequential numbering). Each Kd is an estimate from the mating assay, the geometric mean of the replicates in which the pair was seen; lower is stronger. Where no diploid with the target was found in any replicate, the entry reads "nd": below detection, most likely a poor binder, though not proof of it. Nonspecific signal, from three strains lacking the peptide, appeared in 15% of pairings of library AAYL49, centred on 11 µM (5% of these signals below 680 nM); values are not corrected for it. Also given: how often the same scFv was detected with the empty control strains.

Variant G33R+D62F showed nd (0 of 3 replicates; controls 1 of 9). With G33M+V64D the result was 380 µM (1 of 3 replicates; controls 3 of 9). With G33D+Y52A+T58W the result was 100 µM (2 of 3 replicates; controls 7 of 9). For S31L+G33E+V50P, the assay gave nd (0 of 3 replicates; controls 3 of 9). Variant G33F+G55H+R56D showed nd (0 of 3 replicates; controls 1 of 9). Variant N30F+G33P+G99L showed 4.6 µM (1 of 3 replicates; controls 3 of 9). For S31H+G33W+I34R, the assay gave 56 nM (3 of 3 replicates; controls 2 of 9). With G33D+V50N+T58P the result was 4.5 µM (1 of 3 replicates; controls 1 of 9). Variant G33V+A102R+T104H showed 2.0 µM (1 of 3 replicates; controls 1 of 9).

Variant G33D+R56G+G61V gave nd (0 of 3 replicates; controls 0 of 9). Variant S31V+G33C+S53I showed 960 nM (1 of 3 replicates; controls 0 of 9). For G33K+V50A+I51M, the assay gave nd (0 of 3 replicates; controls 1 of 9). For G33M+I51F+G61F, the assay gave nd (0 of 3 replicates; controls 2 of 9). Variant G33M+I51L+S53F showed 11 µM (2 of 3 replicates; controls 3 of 9). With G33A+T58G+G61A the result was nd (0 of 3 replicates; controls 2 of 9). With G33S+S63L the result was nd (0 of 3 replicates; controls 0 of 9). For G33K+G55A+T104L, the assay gave nd (0 of 3 replicates; controls 0 of 9). Variant L29Q+G33M+T58P showed 1.7 µM (1 of 3 replicates; controls 0 of 9).

With G33P+G61F+G103T the result was 150 µM (2 of 3 replicates; controls 2 of 9). Variant G33A+S53I+G99M gave nd (0 of 3 replicates; controls 2 of 9). Variant S31Q+G33E+G103A gave nd (0 of 3 replicates; controls 1 of 9). Variant S31D+G33L+I34Y showed nd (0 of 3 replicates; controls 2 of 9). Variant G33L+D62F+R100M gave nd (0 of 3 replicates; controls 0 of 9). Variant G33M+Y52C+G61P showed nd (0 of 3 replicates; controls 0 of 9). Variant G33Q+D106T+S107D showed nd (0 of 3 replicates; controls 1 of 9). Variant S31I+Y32G+G33M showed 380 µM (1 of 3 replicates; controls 1 of 9). Variant G33M+S107G showed 650 µM (1 of 3 replicates; controls 3 of 9).

With G33R+Y52T+F59G the result was nd (0 of 3 replicates; controls 0 of 9). Variant G33A+I34E+A101H gave nd (0 of 3 replicates; controls 0 of 9). Variant F27V+G33N+D54N gave nd (0 of 3 replicates; controls 0 of 9). Variant G33V+G61M+A102F gave nd (0 of 3 replicates; controls 0 of 9). Variant F27T+G33W+F105Q gave 510 nM (1 of 3 replicates; controls 5 of 9). For G33F+D54C+R56Q, the assay gave 58 µM (1 of 3 replicates; controls 8 of 9). Variant S31D+G33V+R57T showed nd (0 of 3 replicates; controls 2 of 9). Variant G33Y+I34W+T104N gave nd (0 of 3 replicates; controls 0 of 9). For G33R+V64R+S107K, the assay gave nd (0 of 3 replicates; controls 0 of 9).

Variant G33V+I34P+D106R gave 96 µM (1 of 3 replicates; controls 5 of 9).

Again, the first 5 entries without any signal:

changes,apparent Kd,detected,control signals
G33R+D62F,nd,0 of 3,1 of 9
S31L+G33E+V50P,nd,0 of 3,3 of 9
G33F+G55H+R56D,nd,0 of 3,1 of 9
G33D+R56G+G61V,nd,0 of 3,0 of 9
G33K+V50A+I51M,nd,0 of 3,1 of 9

The measurements come from Engelhart et al. 2022 (doi:10.1038/s41597-022-01779-4) through the FLAb antibody collection.